Active and inactive are the calls of the source. The rule behind the calls is not given here.
Target: T1, Heat shock factor protein 1 (Homo sapiens) (UniProt Q00613)
T1 sequence (whole entry): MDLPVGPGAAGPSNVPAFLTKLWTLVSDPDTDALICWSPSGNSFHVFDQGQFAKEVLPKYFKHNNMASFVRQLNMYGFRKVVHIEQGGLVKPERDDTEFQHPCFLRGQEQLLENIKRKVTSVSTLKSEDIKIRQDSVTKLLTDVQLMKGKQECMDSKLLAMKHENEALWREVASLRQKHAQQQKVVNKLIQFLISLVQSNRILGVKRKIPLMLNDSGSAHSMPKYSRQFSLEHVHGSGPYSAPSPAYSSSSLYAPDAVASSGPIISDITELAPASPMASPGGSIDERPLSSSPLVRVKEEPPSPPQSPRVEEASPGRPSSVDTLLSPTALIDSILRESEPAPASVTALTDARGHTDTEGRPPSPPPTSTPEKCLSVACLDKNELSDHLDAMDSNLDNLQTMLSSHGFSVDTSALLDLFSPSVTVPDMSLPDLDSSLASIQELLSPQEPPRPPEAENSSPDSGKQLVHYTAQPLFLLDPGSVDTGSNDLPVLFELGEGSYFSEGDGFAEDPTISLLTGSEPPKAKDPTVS
Experiment: Amplification of HSF1 transcriptional activity in human HeLa cells assessed as granule formation pretreated for 3 hrs by immunocytochemical staining
Assay type: cell-based
Outline: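 HeLa cells pretreated with compound 1 h, then mild heat shock 41 °C for 2 h, no recovery; control arm pretreated 3 h at 37 °C without heat shock. Compound diluted 200-fold, 0.3 to 80 µM range.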

**Q.** How did the Activity turn out when `Cn1c(=O)nc2[nH]nc(-c3cccs3)nc-2c1=O` was run?
**A.** The Activity was “inactive”.

Reference: ChEMBL document CHEMBL1152353, “Pyrimido[5,4-e][1,2,4]triazine-5,7(1H,6H)-dione derivatives as novel small molecule chaperone amplifiers” (Bioorg Med Chem Lett, 2009)
